Amino acid sequences for entries named in this document (tags omitted). A change or cut given only in a name is not applied to a line headed by its entry.
UniProt Q13200: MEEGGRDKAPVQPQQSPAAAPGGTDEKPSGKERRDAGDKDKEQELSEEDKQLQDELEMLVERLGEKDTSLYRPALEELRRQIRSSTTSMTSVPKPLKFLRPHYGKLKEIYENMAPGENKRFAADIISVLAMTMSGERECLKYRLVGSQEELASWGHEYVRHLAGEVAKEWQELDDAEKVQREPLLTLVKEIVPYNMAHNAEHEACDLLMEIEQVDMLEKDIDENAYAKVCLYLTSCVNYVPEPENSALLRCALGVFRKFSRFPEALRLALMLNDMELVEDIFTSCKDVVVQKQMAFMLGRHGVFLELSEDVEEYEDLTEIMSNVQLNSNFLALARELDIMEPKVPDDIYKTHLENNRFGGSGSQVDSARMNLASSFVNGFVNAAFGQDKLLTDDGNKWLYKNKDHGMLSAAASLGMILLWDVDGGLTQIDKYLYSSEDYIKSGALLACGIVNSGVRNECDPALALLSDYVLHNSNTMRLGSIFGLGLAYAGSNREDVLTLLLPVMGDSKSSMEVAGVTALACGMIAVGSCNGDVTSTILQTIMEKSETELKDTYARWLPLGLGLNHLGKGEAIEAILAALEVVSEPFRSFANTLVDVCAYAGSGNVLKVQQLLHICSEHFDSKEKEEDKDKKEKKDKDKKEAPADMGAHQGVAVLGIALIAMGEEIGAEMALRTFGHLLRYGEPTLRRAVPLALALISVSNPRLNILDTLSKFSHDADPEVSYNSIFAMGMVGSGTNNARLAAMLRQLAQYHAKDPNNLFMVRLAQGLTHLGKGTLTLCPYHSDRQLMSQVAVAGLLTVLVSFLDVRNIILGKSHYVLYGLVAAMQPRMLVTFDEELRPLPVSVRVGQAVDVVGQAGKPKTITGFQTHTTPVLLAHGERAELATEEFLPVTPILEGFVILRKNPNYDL

In PMC12700817 (Nature Structural & Molecular Biology, 2025):

Target: human 26S proteasome (human (endogenous in HEK293) | human) (UniProt Q13200)
Test: fluorescence polarisation; FAM-TXNL1 50 nM, proteasome titrated, FAT10 5 μM, NUB1 6 μM, MG132 20 μM (stalled in processing states); binding curve from the 900 s time points, 30 °C

N-terminally FAM-labeled TXNL1 (natural protein)
Kd: 35 nM
